According to patent US20090192095A1 (priority 2008, published 2009):

Conditions: HPLC

CO[C@]12CC[C@@]3(C[C@@H]1[C@@](C)(O)C(C)(C)C)[C@H]1Cc4ccc(OC(=O)NC(C(=O)O)C(C)C)c5c4[C@@]3(CCN1CC1CC1)[C@H]2O5 (stereo partly drawn)
Distilled water (pH 5.9): % remaining after 2 h/20° C. (distilled water pH 5.9, 2 h, 20° C.): 100%
Simulated gastric fluid (pH 1.1): % remaining after 2 h/37° C. (simulated gastric fluid pH 1.1, 2 h, 37° C.): 100%
Simulated intestinal fluid (pH 6.8): % remaining after 2 h/37° C. (simulated intestinal fluid pH 6.8, 2 h, 37° C.): 98%
